“Also recorded” adds a separate entry of the source.
System: subjects with pulmonary hypertension (WHO group I PAH, WHO group III PH)
Test: Right heart catheterization: right heart/pulmonary artery hemodynamics, thermodilution cardiac output, PVR and SVR after inhaled NO and nebulized nitrite
Format: in vivo, human
Details: patients with PH (WHO Group 1 and Group 3; n=6), inhaled doses of 45 mg and 90 mg

Q: Which “pulmonary vascular resistance (PVR)” value does the source give for O=NO [nitrite, sodium nitrite] here?
A: dose-dependent reduction

Q: And the “systemic vascular resistance (SVR)” value (in most patients, listed as inhaled nitrite)?
A: without significantly altering; also recorded: does not significantly affect

Q: What about the cardiac index (listed as inhaled nitrite) of the same compound?
A: dose-dependent improvements
